Experimental data as given in PMC8789663 (The Journal of Biological Chemistry, 2021).
Each block holds one substance with its values, some of them ahead of it.

Chains of the proteins cited; added tags and fusions are not shown. Residues count along the entry.
UniProt P43220, 24-463: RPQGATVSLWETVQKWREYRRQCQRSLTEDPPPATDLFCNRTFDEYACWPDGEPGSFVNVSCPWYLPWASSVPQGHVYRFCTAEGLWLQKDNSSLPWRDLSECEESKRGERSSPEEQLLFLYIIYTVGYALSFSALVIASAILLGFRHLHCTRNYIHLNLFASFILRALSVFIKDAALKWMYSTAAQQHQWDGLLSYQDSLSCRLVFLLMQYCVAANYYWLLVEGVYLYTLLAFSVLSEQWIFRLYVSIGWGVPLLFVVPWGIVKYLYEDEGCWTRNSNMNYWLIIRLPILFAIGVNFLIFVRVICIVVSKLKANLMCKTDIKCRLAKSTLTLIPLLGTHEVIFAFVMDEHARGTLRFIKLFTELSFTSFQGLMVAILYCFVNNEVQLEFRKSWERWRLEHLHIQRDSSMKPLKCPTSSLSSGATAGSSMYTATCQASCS
UniProt P30082, 27-485: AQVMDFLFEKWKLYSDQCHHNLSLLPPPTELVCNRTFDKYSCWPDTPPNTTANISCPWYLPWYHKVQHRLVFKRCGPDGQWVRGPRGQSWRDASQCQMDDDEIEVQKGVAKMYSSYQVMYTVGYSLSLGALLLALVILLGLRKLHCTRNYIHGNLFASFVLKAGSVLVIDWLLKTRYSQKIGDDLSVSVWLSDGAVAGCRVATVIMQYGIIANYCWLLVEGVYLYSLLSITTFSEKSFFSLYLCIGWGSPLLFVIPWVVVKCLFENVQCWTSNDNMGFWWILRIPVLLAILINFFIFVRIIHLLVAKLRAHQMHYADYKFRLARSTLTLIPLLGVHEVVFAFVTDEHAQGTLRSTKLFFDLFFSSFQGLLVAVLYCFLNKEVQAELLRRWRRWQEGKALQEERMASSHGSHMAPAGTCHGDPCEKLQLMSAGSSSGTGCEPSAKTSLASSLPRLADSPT

What was measured:
[1] = molecular target: glucagon-like peptide-1 receptor, recombinant in HEK293-H188 c24 cells (human) (UniProt P43220)
[2] = molecular target: glucagon-like peptide-1 receptor, recombinant in HEK293-H188 c24 cells (human) (UniProt P43220); remark: listed apart in the source
[3] = molecular target: rat glucagon receptor (rat) (UniProt P30082)

Substance: Exendin-[9–39] (peptide)
block of the action of GLP-1 to raise cAMP (H188 FRET) in HEK293-H188 c24 cells transfected with the GLP-1R; pair blocked: GLP-1 and GLP-1R [1]: 18 nM | block of the action of glucagon to raise cAMP (H188 FRET) in HEK293-H188 c24 cells transfected with the GLP-1R; pair blocked: glucagon and GLP-1R [1]: 50 nM

rise of cAMP (H188 FRET reporter) in HEK293-GLP-1R cells (HEK293-H188 c24) [2]: 98 pM
Substance: GLP-1[7-36]amide (ligand)

rise of cAMP (H188 FRET reporter) in HEK293-GcgR cells (HEK293-H188 c24) [3]: 570 pM
Substance: glucagon (ligand)
